{"source": "patent US20250009779A1", "about": "(priority 2021, published 2025)", "test_system": "pDCs", "format": "cell-based, human"}
{"molecule": "O.O=C([O-])CCC(=O)C(=O)[O-].[Na+].[Na+]", "note": "[α-KG, α-ketoglutaric acid disodium salt hydrate]", "values": [{"measurement": "IFNA expression by TLR9-activated pDCs undergoing ER stress", "value": "rescued"}]}
